Measured values reported in patent US11471478B2, “Use of cyclodextrins in diseases and disorders involving phospholipid dysregulation” (priority 2017, dated 2022).

Details: in vivo

Substance: 2-hydroxypropyl-alpha-cyclodextrin [HP-α-CD]
- absorption of oral HP-α-CD: not absorbed
